The values that follow come from paper PMC6321168, “Comparative Study on Excretive Characterization of Main Components in Herb Pair Notoginseng-Safflower and Single Herbs by LC–MS/MS” (Pharmaceutics, 2018).

A short description of series [1]: Urinary excretion study in rats after oral NS, SF or CNS (LC–MS/MS). Format: in vivo. The note with it: rat urine; for Accumulative excretion amount / Accumulative excretion percentage: oral NS 60 mg/kg. The protocol:
(§1) The animal room was set at constant temperature of 20 ± 2 °C with humidity of 50 ± 20% and 12/12 h light/dark cycle.
(§2) Eighteen male rats were fasted for 12 h before starting the experiment. The rats were divided into three groups at random (n = 6) and received NS (60 mg/kg), SF (50 mg/kg), and NS (60 mg/kg) + SF (50 mg/kg), respectively, by oral gavage. The rats were placed in separate metabolic cages. The urine samples were collected at 0–2, 2–4, 4–6, 6–8, 8–12, 12–24, 24–36, 36–48, 48–72, 72–96, and 96–120 h. The feces samples were collected at 0–4, 4–8, 8–12, 12–24, 24–36, 36–48, 48–72, 72–96, and 96–120 h. The urine volume was recorded and the dry feces were measured for each collection period. Samples were stored at −80 °C until analysis.
An aliquot of 200 μL urine sample was mixed with 10 μL of IS and evaporated to dryness with a ZLS-2 vacuum centrifugal concentrator (Herexi Co., Ltd., Changsha, Hunan, China). The residue was reconstituted in 100 μL of 50% methanol vortexed for 2 min and centrifuged at 12,000 rpm for 15 min. Finally, a 1 μL aliquot was injected for LC–MS analysis.
(§3) Ultra fast liquid chromatography (UFLC) analysis was performed using a Shimadzu UFLC system (DGU-20A3R Degasser; LC-20AD pump; SIL-20AXR Autosampler; CTO-20AC Column Oven) (Nakagyo-Ku, Koyoto, Japan). […] Because of the different endogenous substances in the urine and feces samples, different elution gradients were used to alleviate the matrix effects for the analytes.
(§4) The mass spectrometric detection was performed on an ABSciex 4500 Qtrap mass spectrometer (ABSciex, Foster City, CA, USA) equipped with a negative electrospray ionization (ESI) interface using multiple reaction monitoring (MRM). The MS parameters were optimized under the selected ion monitoring conditions as follows: curtain gas, 35 psi; ionspray voltage, 4500 V; turbo gas temperature, 450 °C; GS1, 45 psi; GS2, 45 psi. All data were acquired and analyzed by Analyst software (Versions 1.6.2) from ABSciex.
(§5) The accumulative excretion percentage was calculated for each analyte as follows. Excretion at time (t) = [concentration of the analyte (ng/mL) at t] × total urine (or feces) volume (mL) at t. The cumulative excretion up to time t (mg) was expressed as a percent (%) cumulative excretion by dividing by the total amount of the analyte ingested (mg): % Cumulative Excretion = 100 × (Σt excretiont) total ingested.

Series [2] is described as follows: Fecal excretion study in rats after oral NS, SF or CNS (LC–MS/MS). The note with it: rat feces. Format: in vivo. The protocol: as §1, §2
Feces samples were homogenized in ultrapure water (1 g/15 mL), soaked for 30 min, ultrasonically extracted for 30 min and centrifuged at 9000 rpm for 8 min. An aliquot of 200 μL feces water extraction solution was mixed with 10 μL of IS and then extracted three times with water-saturated n-BuOH (150 μL). The upper organic phase was combined and evaporated to dryness using a ZLS-2 vacuum centrifugal concentrator. The residue was treated as the urine sample and a 1-μL aliquot was injected for LC–MS analysis.
as §3, §4, §5

In turn, `CC(C)=CCC[C@](C)(O[C@@H]1O[C@H](CO)[C@@H](O)[C@H](O)[C@H]1O)[C@H]1CC[C@]2(C)[C@@H]1[C@H](O)C[C@@H]1[C@@]3(C)CC[C@H](O)C(C)(C)[C@@H]3[C@@H](O[C@@H]3O[C@H](CO)[C@@H](O)[C@H](O)[C@H]3O[C@@H]3O[C@@H](C)[C@H](O)[C@@H](O)[C@H]3O)C[C@]12C` [ginsenoside Re] showed an Excretion amount in series [1] (oral CNS 110 mg/kg, 2 h) of 0.133 ± 0.062 µg. In addition, in series [2] (oral CNS 110 mg/kg, 72 h), the Accumulative excretion amount came out at 28.467 ± 7.628 µg.

In the case of `CC(C)=CCC[C@](C)(O[C@@H]1O[C@H](CO)[C@@H](O)[C@H](O)[C@H]1O)[C@H]1CC[C@]2(C)[C@@H]1[C@H](O)C[C@@H]1[C@@]3(C)CC[C@H](O[C@@H]4O[C@H](CO)[C@@H](O)[C@H](O)[C@H]4O[C@@H]4O[C@H](CO)[C@@H](O)[C@H](O)[C@H]4O)C(C)(C)[C@@H]3CC[C@]12C` [ginsenoside Rd], in series [2] (oral NS 60 mg/kg, 36 h), the Accumulative excretion percentage was 5.174±1.612%.

As to `CC(C)=CCC[C@](C)(O[C@@H]1O[C@H](CO)[C@@H](O)[C@H](O)[C@H]1O)[C@H]1CC[C@]2(C)[C@@H]1[C@H](O)C[C@@H]1[C@@]3(C)CC[C@H](O)C(C)(C)[C@@H]3[C@@H](O[C@@H]3O[C@H](CO)[C@@H](O)[C@H](O)[C@H]3O)C[C@]12C` [ginsenoside Rg1], the Accumulative excretion amount in series [1] (96 h) worked out at 16.480 ± 7.192 µg; in series [1] (120 h) it was 16.542 ± 7.264 µg; in series [2] (oral NS 60 mg/kg, 96 h), 133.700 ± 39.733 µg; in series [2] (oral NS 60 mg/kg, 120 h) it was 134.015 ± 39.837 µg. The Accumulative excretion percentage in series [1] (96 h) turned out to be 0.473±0.208%; in series [1] (120 h) it was 0.473±0.211%; in series [2] (oral CNS 110 mg/kg, 12 h), 1.864±0.675%.

As to `CC(C)=CCC[C@](C)(O[C@@H]1O[C@H](CO[C@@H]2O[C@H](CO)[C@@H](O)[C@H](O)[C@H]2O)[C@@H](O)[C@H](O)[C@H]1O)[C@H]1CC[C@]2(C)[C@@H]1[C@H](O)C[C@@H]1[C@@]3(C)CC[C@H](O[C@@H]4O[C@H](CO)[C@@H](O)[C@H](O)[C@H]4O[C@@H]4O[C@H](CO)[C@@H](O)[C@H](O)[C@H]4O)C(C)(C)[C@@H]3CC[C@]12C` [ginsenoside Rb1], the Accumulative excretion percentage in series [2] (oral NS 60 mg/kg, 48 h) stood at 2.692±0.846%.
